Results from patent US20120308548A1 (NOVA SOUTHEASTERN UNIVERSITY, priority 2010, published 2012).
Where two headings read alike, the source gives them in different places.

Legend:
[1] = Experimental: Typically the overall reaction of α-ketobutyrate formation was performed in a total volume of 24 μl. The reaction contained 4 μl of reaction buffer [150 mM Tris-HCl (pH 8.0)], 4 μl of 1 mM pyridoxal phosphate (PLP), 3 μl of H2O, 6 μl of storage buffer, and 4 μl of diluted protein (0.4 μg), gently mixed and incubated at 37° C. for 5 minutes. The reaction was started by adding 1.93×10^5 cpm of 1-^14C-L-methionine (8814 cpm/nmol) and the contents were incubated at 37° C. for 15 minutes. The reaction was stopped by boiling for a minute, cooled on ice for 2 minutes and centrifuged at 3575 g for 7 minutes. A 2 μl aliquot was then chromatographed on a silica gel plate using 25% 20 mM phosphate buffer (pH 7.0) and 75% acetonitrile. Following chromatography, the TLC plates were dried, and exposed to x-ray film for 36-48 hours (Eastman-Kodak Co). The respective spots of substrate and products were cut out and radioactivity determined by liquid scintillation.
The activity was measured using different amounts of protein ranging from 0.1 to 1 μg and the reaction was performed for 5-30 minutes.
Reaction at each protein concentration was performed for 15 minutes at pH 8.0 according to the standard assay procedures described. Effect of time was tested using 0.4 μg of protein. […] Reaction at each temperature was performed for 15 minutes at pH 8.0 with 0.4 μg of protein according to the standard assay procedures described. […] Reactions were performed for 15 minutes at 37° C., using reaction buffers of various pHs that contained ingredients used in standard assays described. [The following buffers were used for various pHs: citrate reaction buffer (pH 4.0, 5.0, and 6.0); phosphate buffer (pH 6.0 and 7.0); Tris-Hcl (pH 8.0 and 9.0), and glycine (pH 9.0, 10.0, and 11.0)].

BHK-21 cells = system: BHK-21 cells
Experimental: (§1) The effect of MEGL on cell viability was determined using 3-[4,5-dimethylthiazol-2-yl]-2,5-diphenyl-tetrazolium bromide (MTT, Sigma-Aldrich). For MTT assay, cells were suspended at a concentration of ˜4×10^4 cells (180 μl/well). 20 μl of MTT solution (5 mg/ml) was added for each well and incubate at 37° C. and 5% CO2 for about 2-5 hours for purple color development. Formazan precipitates were dissolved in DMSO for 30 minutes at 37° C., and the absorbance was measured at 570 nm.
(§2) Viability of cells transfected with MEGL construct. Three different cell lines (Hela, BHK-21, and HEK-AD293T) were plated in 96-well plates and transfected with either vector expressing green fluorescent protein, GFP (pEGFP-C3), or MEGL and GFP (pEGFP-C3-MEGL). After 18 hours of transfection, cells were treated with MTT and viability was determined by measuring the MTT absorbance at λ570 nm. Control absorbance was arbitrarily determined as 100% viability.

HEK-AD293T cells = system: HEK-AD293T cells
Experimental: as §1, §2

HeLa cells = settings: 18 hour MEGL expression, GFP control = 100% viability
Experimental: as §1, §2

Substance: methionine gamma lyase-2-aminobutyrate deaminase [MEGL-2ABD]
- Vmax [1]: 0.67 mmol/min/mg
- Vmax ([1]; overall reaction of α-ketobutyrate formation): 0.00067 mmol/min/mg
- enzyme activity at pH below 6.0 ([1]; pH <6.0): very low
- Km ([1]; read-out: Km for methionine, overall reaction of α-ketobutyrate formation, purified enzyme, 37° C., pH 8.0): 310 µM
- decrease in cell viability, MTT (BHK-21 cells): 4.6 (+/−1.6) %
- decrease in cell viability, MTT (HEK-AD293T cells): 2.7 (+/−2.7) %
- decrease in cell viability (cell death), MTT (HeLa cells): 32 (+/−2.2) %
